# Measurements reported in patent publication US20230392179A1 (SOOCHOW UNIVERSITY, priority 2021, published 2023).
# Tested on: Mycobacterium smegmatis containing plasmid PMV261-Kana^R
# Test: Control group: growth (OD600) of Mycobacterium smegmatis carrying PMV261-Kana^R (no intein) in kanamycin medium
# Settings: 20 μM cisplatin, kanamycin 50 μg/mL plus hygromycin, 37° C., 100 h
compound,measurement,value
N.N.[Cl][Pt][Cl] [cisplatin],inhibition rate of growth of Mycobacterium smegmatis containing the control group plasmid (PMV261-Kana^R),14%
